In the assay the target is T1, PoloBoxtide-optimal, MAGPMQ-S-pT-P-LNGAKK (Artificial Sequence).
T1 chain: MAGPMQSTPLNGAKK
Briefly: isothermal titration calorimetry, peptide injected into PBD (residues 326-603). The settings on record: remark: other sources report otherwise.

B1: Plk-1 Polo-box domain (PBD), residues 326-603 (protein)
chain: SIAPSSLDPSNRKPLTVLNKGLENPLPERPREKEEPVVRETGEVVDCHLSDMLQQLHSVNASKPSERGLVRQEEAEDPACIPIFWVSKWVDYSDKYGLGYQLCDNSVGVLFNDSTRLILYNDGDSLQYIERDGTESYLTVSSHPNSLMKKITLLKYFRNYMSEHLLKAGANITPREGDELARLPYLRTWFRTRSAIILHLSNGSVQINFFQDHTKLILCPLMAAVTYIDEKRDFRTYRLSLLEEYGCCKELASRLRYARTMVDKLLSSRSASNRLKAS
modifications: here or on the partner: phosphothreonine (pT) at position 8
Turning to B1, the Kd worked out at 280 nM.

These data come from US20110104713A1, “PRODUCTS AND PROCESSES FOR MODULATING PEPTIDE-PEPTIDE BINDING DOMAIN INTERACTIONS” (priority 2002, published 2011).
